Data published in patent US11851445B2, “Compounds and uses thereof” (Foghorn Therapeutics Inc., priority 2020, dated 2023).

Assay: Interconversion between Enantiomer 1 and Enantiomer 2 in cell medium, chiral LC/MS-MS
Conditions: Enantiomer 1 Dosing, 0.2 μM, 37° C., 0.5 h, Time 0 h
Experimental: For the assessment of interconversion between Enantiomer 1 and Enantiomer 2 in cell medium, the following test was performed. Enantiomer 1 and Enantiomer 2 (each was 40 μM in DMSO) was spiked into cell medium (DMEM+Glutamax+10% FBS) at a final concentration of 0.2 μM and incubated at 37° C. and 5% CO2 in duplicate. At designated time point, aliquot (50 μL) was taken and processed by the addition of 150 μL of acetonitrile containing 0.1% formic acid and internal standard for LC/MS-MS analysis. Peak areas of both Enantiomer 1 and Enantiomer 2 were determined for each sample using a chiral specific analytical method.

COc1cc(-c2cn(C)c(=O)c3cnc(N4CCC4)cc23)cc(OC)c1CN1CCC(CN2CCC3(CC2)CN(c2ccc4c(c2)C(=O)N([C@@H]2CCC(=O)NC2=O)C4)C3)CC1 (single isomer, unassigned)
% Enantiomer 2: 0.0%
